Results from ChEMBL document CHEMBL4138316, “Optimization of Isothiazolo[4,3- b]pyridine-Based Inhibitors of Cyclin G Associated Kinase (GAK) with Broad-Spectrum Antiviral Activity” (J Med Chem, 2018).
Values after ≈ are worked out from the molar mass of the structure shown.

Columns and labels:
[1] = Aqueous solubility in PBS buffer at pH 7.4 at 100 uM after 1 hr by LC-MS/MS analysis; format: physicochemical; conditions: pH 7.4, 1 h
[2] = Apparent permeability cross basolateral to apical side in MDCK-MDR1 cells at 5 uM after 90 mins by LC-MS/MS analysis; format: ADME, cell-based, Canis lupus familiaris; conditions: dog, mdck-mdr1, 1.5 h
[3] = Apparent permeability cross apical to basolateral side in MDCK-MDR1 cells at 5 uM after 90 mins by LC-MS/MS analysis; format: ADME, cell-based, Canis lupus familiaris; conditions: dog, mdck-mdr1, 1.5 h

SMILES	solubility [1] [µM]	Papp [2] [nm/s]	Papp [3] [nm/s]
CC(=O)N1CCN(c2ccc(OCC3COC(Cn4ccnc4)(c4ccc(Cl)cc4Cl)O3)cc2)CC1 (stereo not drawn) [KETOCONAZOLE]	32 (≈ 17 µg/mL)		
C=C[C@H]1C[N@@]2CC[C@H]1C[C@@H]2[C@@H](O)c1ccnc2ccc(OC)cc12 [QUINIDINE]		419.9	130.3
